Measured values published in patent US12110507B2, “Method for preparing functional hepatic progenitor cells or hepatic cells, or functional small intestinal epithelial progenitor cells or small intestinal epithelial cells” (priority 2017, dated 2024).

System: hepatic progenitor cells differentiated from SEES5 cells
Assay: culture of hepatic progenitor cells differentiated from SEES5 cells in the presence of an antibiotic (selection)
Type: cell-based, human
Conditions: conditions of Table 6; data not shown

Substance: phleomycin
- CYP3A4 expression of the cells selected with antibiotic: markedly high level
